Paper PMC3928712 (ACS chemical biology, 2013)

System: influenza A/Puerto Rico/8/1934 (H1N1; PR8)
Assay: microbe, parasite or virus in culture
Conditions: H1N1|PR8, MDCK, 24 h, read-out: antiviral activity EC50

CCOC(=O)C1=C[C@@H](OC(CC)CC)[C@H](NC(C)=O)[C@@H](N)C1 [oseltamivir]
EC50: 15 nM
